Laboratory results reported in US20160220637A1, “Pharmaceutical Compositions of Growth Hormone Secretagogue Receptor Ligands” (Ipsen Pharma S.A.S., priority 2010, published 2016).

Protein sequences, listed by entry. Tags and fused reporters are not part of them.
UniProt Q92847, whole entry: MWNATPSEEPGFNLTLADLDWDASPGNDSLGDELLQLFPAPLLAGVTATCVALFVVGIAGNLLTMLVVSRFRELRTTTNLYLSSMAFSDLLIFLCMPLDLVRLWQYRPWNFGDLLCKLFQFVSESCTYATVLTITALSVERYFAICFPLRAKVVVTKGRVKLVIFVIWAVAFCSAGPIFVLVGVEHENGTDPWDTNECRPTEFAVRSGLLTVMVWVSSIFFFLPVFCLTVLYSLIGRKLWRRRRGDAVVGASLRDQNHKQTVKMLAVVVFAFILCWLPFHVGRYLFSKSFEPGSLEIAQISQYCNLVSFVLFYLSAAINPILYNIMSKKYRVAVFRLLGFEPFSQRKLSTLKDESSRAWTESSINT

The compounds below were run against T1, human recombinant GHS receptor (Homo sapiens, UniProt Q92847) (assay: not given). Settings: read-out: hGHS Ki; 0.05 nM (125I)ghrelin, 60 min, 4° C., CHO-K1 membranes.

Row | SMILES | Ki [nM]
1 | NC(=O)C1(NC(=O)[C@H](Cc2cscn2)NC(=O)[C@@H](Cc2c[nH]c3ccccc23)NC(=O)[C@@H](Cc2cccc3ccccc23)NC(=O)C2(N)CCNCC2)CCNCC1 [Example 64, H-Apc-D-1Nal-D-Trp-Taz-Apc-NH2] | 0.98
2 | NCCCC[C@H](NC(=O)[C@H](Cc1ccccc1)NC(=O)[C@@H](Cc1ccc(C(=O)c2ccccc2)cc1)NC(=O)[C@@H](Cc1ccc2ccccc2c1)NC(=O)C1CCNCC1)C(N)=O [Example 12, H-Inp-D-2Nal-D-Bpa-Phe-Lys-NH2] | 419
3 | NC(=O)[C@H](Cc1ccccc1)NC(=O)[C@H](NC(=O)[C@@H](Cc1ccc2ccccc2c1)NC(=O)C1CCNCC1)C(c1ccccc1)c1ccccc1 [Example 22, H-Inp-D-2Nal-D-Dip-Phe-NH2] | 105
4 | NCCCC[C@H](NC(=O)[C@H](Cc1cccs1)NC(=O)[C@@H](Cc1c[nH]c2ccccc12)NC(=O)[C@@H](Cc1cccc2ccccc12)NC(=O)C1(N)CCNCC1)C(N)=O [Example 32, H-Apc-D-1Nal-D-Trp-2Thi-Lys-NH2] | 0.29
5 | NC(=O)[C@H](Cc1ccccc1)NC(=O)[C@@H](Cc1c[nH]c2ccccc12)NC(=O)[C@H](NC(=O)C1CCNCC1)C(c1ccccc1)c1ccccc1 [Example 21, H-Inp-D-Dip-D-Trp-Phe-NH2] | 105
6 | NC(=O)C1(NC(=O)[C@H](Cc2ccccc2)NC(=O)[C@@H](Cc2cccc3ccccc23)NC(=O)[C@@H](Cc2cccc3ccccc23)NC(=O)C2(N)CCNCC2)CCNCC1 [Example 48, H-Apc-D-1Nal-D-1Nal-Phe-Apc-NH2] | 1.99
7 | NC(=O)[C@H](Cc1c(F)c(F)c(F)c(F)c1F)NC(=O)[C@@H](Cc1c[nH]c2ccccc12)NC(=O)[C@@H](Cc1ccc2ccccc2c1)NC(=O)C1CCNCC1 [Example 18, H-Inp-D-2Nal-D-Trp-Pff-NH2] | 36.3
8 | NC(=O)[C@H](Cc1cscn1)NC(=O)[C@@H](Cc1c[nH]c2ccccc12)NC(=O)[C@@H](Cc1csc2ccccc12)NC(=O)C1(N)CCNCC1 [Example 59, H-Apc-D-Bal-D-Trp-Taz-NH2] | 1.62
9 | NC(=O)C1(NC(=O)[C@H](Cc2ccccc2)NC(=O)[C@@H](Cc2ccc3ccccc3c2)NC(=O)[C@@H](Cc2csc3ccccc23)NC(=O)C2(N)CCNCC2)CCNCC1 [Example 52, H-Apc-D-Bal-D-2Nal-Phe-Apc-NH2] | 1.49
10 | NCCCC[C@H](NC(=O)[C@H](Cc1ccccc1)NC(=O)[C@@H](Cc1c[nH]c2ccccc12)NC(=O)[C@@H](Cc1ccc(C(=O)c2ccccc2)cc1)NC(=O)C1CCNCC1)C(N)=O [Example 11, H-Inp-D-Bpa-D-Trp-Phe-Lys-NH2] | 93.8
11 | NC(=O)[C@H](Cc1cscn1)NC(=O)[C@@H](Cc1c[nH]c2ccccc12)NC(=O)[C@@H](Cc1ccc2ccccc2c1)NC(=O)C1(N)CCNCC1 [Example 61, H-Apc-D-2Nal-D-Trp-Taz-NH2] | 2.11
12 | NCCCC[C@H](NC(=O)[C@H](Cc1ccccc1)NC(=O)[C@@H](Cc1c[nH]c2ccccc12)NC(=O)[C@@H](Cc1ccc(-c2ccccc2)cc1)NC(=O)C1CCNCC1)C(N)=O [Example 5, H-Inp-D-Bip-D-Trp-Phe-Lys-NH2] | 1.35
13 | NCCCC[C@H](NC(=O)[C@H](Cc1c(F)c(F)c(F)c(F)c1F)NC(=O)[C@@H](Cc1c[nH]c2ccccc12)NC(=O)[C@@H](Cc1ccc2ccccc2c1)NC(=O)C1CCNCC1)C(N)=O [Example 7, H-Inp-D-2Nal-D-Trp-Pff-Lys-NH2] | 25.4
14 | NCCCC[C@H](NC(=O)[C@H](Cc1ccccc1)NC(=O)[C@@H](Cc1c[nH]c2ccccc12)NC(=O)[C@@H](Cc1cccc2ccccc12)NC(=O)C1(N)CCNCC1)C(N)=O [Example 44, H-Apc-D-1Nal-D-Trp-Phe-Lys-NH2] | 0.42
15 | NCCCC[C@H](NC(=O)[C@H](Cc1ccccc1)NC(=O)[C@@H](Cc1c[nH]c2ccccc12)NC(=O)[C@H](NC(=O)C1CCNCC1)C(c1ccccc1)c1ccccc1)C(N)=O [Example 10, H-Inp-D-Dip-D-Trp-Phe-Lys-NH2] | 46.8
16 | NC(=O)C1(NC(=O)[C@H](Cc2ccccc2)NC(=O)[C@@H](Cc2cccc3ccccc23)NC(=O)[C@@H](Cc2csc3ccccc23)NC(=O)C2(N)CCNCC2)CCNCC1 [Example 51, H-Apc-D-Bal-D-1Nal-Phe-Apc-NH2] | 3.48

These compounds were tested against T1, human recombinant GHS receptor (assay: biochemical). Settings: not given.

Row | SMILES | Ki [nM]
17 | NC(=O)[C@H](Cc1cccs1)NC(=O)[C@@H](Cc1c[nH]c2ccccc12)NC(=O)[C@@H](Cc1csc2ccccc12)NC(=O)C1(N)CCNCC1 [Example 58, H-Apc-D-Bal-D-Trp-2Thi-NH2] | 0.98
18 | NC(=O)C1(NC(=O)[C@H](Cc2ccccc2)NC(=O)[C@@H](Cc2c[nH]c3ccccc23)NC(=O)[C@@H](Cc2ccc3ccccc3c2)NC(=O)C2CCNCC2)CCNCC1 [Example 29, H-Inp-D-2Nal-D-Trp-Phe-Apc-NH2] | 0.64
19 | NC(=O)[C@H](Cc1ccccc1)NC(=O)[C@@H](Cc1c[nH]c2ccccc12)NC(=O)[C@@H](Cc1csc2ccccc12)NC(=O)C1CCNCC1 [Example 23, H-Inp-D-Bal-D-Trp-Phe-NH2] | 2.3
20 | NCCCC[C@H](NC(=O)[C@H](Cc1ccccc1)NC(=O)[C@@H](Cc1c[nH]c2ccccc12)NC(=O)[C@@H](Cc1csc2ccccc12)NC(=O)C1(N)CCNCC1)C(N)=O [Example 45, H-Apc-D-Bal-D-Trp-Phe-Lys-NH2] | 0.32
21 | NCCCC[C@H](NC(=O)[C@H](Cc1ccccc1)NC(=O)[C@@H](Cc1c[nH]c2ccccc12)NC(=O)[C@@H](Cc1ccc2ccccc2c1)NC(=O)C1(N)CCNCC1)C(N)=O [Example 31, H-Apc-D-2Nal-D-Trp-Phe-Lys-NH2] | 0.42
22 | NC(=O)[C@H](Cc1cccs1)NC(=O)[C@@H](Cc1c[nH]c2ccccc12)NC(=O)[C@@H](Cc1cccc2ccccc12)NC(=O)C1(N)CCNCC1 [Example 55, H-Apc-D-1Nal-D-Trp-2Thi-NH2] | 0.73
23 | NC(=O)C1(NC(=O)[C@H](Cc2cscn2)NC(=O)[C@@H](Cc2c[nH]c3ccccc23)NC(=O)[C@@H](Cc2csc3ccccc23)NC(=O)C2(N)CCNCC2)CCNCC1 [Example 65, H-Apc-D-Bal-D-Trp-Taz-Apc-NH2] | 1.13
24 | O=C(N[C@H](Cc1csc2ccccc12)C(=O)N[C@H](Cc1c[nH]c2ccccc12)c1nc(-c2ccccc2)c[nH]1)C1CCNCC1 [Example 68, H-Inp-D-Bal-D-Trp(Ψ)-Pim] | 48.7
25 | NC(=O)[C@H](Cc1ccccc1)NC(=O)[C@@H](Cc1csc2ccccc12)NC(=O)[C@@H](Cc1ccc2ccccc2c1)NC(=O)C1CCNCC1 [Example 24, H-Inp-D-2Nal-D-Bal-Phe-NH2] | 27.4
26 | NC(=O)[C@H](Cc1cccs1)NC(=O)[C@@H](Cc1c[nH]c2ccccc12)NC(=O)[C@@H](Cc1ccc2ccccc2c1)NC(=O)C1(N)CCNCC1 [Example 60, H-Apc-D-2Nal-D-Trp-2Thi-NH2] | 0.95
27 | NC(=O)C1(NC(=O)[C@H](Cc2cccs2)NC(=O)[C@@H](Cc2c[nH]c3ccccc23)NC(=O)[C@@H](Cc2cccc3ccccc23)NC(=O)C2CCNCC2)CCNCC1 [Example 40, H-Inp-D-1Nal-D-Trp-2Thi-Apc-NH2] | 0.53
28 | NC(=O)C1(NC(=O)[C@H](Cc2ccccc2)NC(=O)[C@@H](Cc2c[nH]c3ccccc23)NC(=O)[C@@H](Cc2cccc3ccccc23)NC(=O)C2CCNCC2)CCNCC1 [Example 30, H-Inp-D-1Nal-D-Trp-Phe-Apc-NH2] | 0.36
29 | NC(=O)C1(NC(=O)[C@H](Cc2ccccc2)NC(=O)[C@@H](Cc2ccc3ccccc3c2)NC(=O)[C@@H](Cc2cccc3ccccc23)NC(=O)C2(N)CCNCC2)CCNCC1 [Example 49, H-Apc-D-1Nal-D-2Nal-Phe-Apc-NH2] | 1.71
30 | NC(=O)C1(NC(=O)[C@H](Cc2ccccc2)NC(=O)[C@@H](Cc2c[nH]c3ccccc23)NC(=O)[C@@H](Cc2csc3ccccc23)NC(=O)C2CCNCC2)CCNCC1 [Example 1, H-Inp-D-Bal-D-Trp-Phe-Apc-NH2] | 0.42
31 | NC(=O)C1(NC(=O)[C@H](Cc2ccccc2)NC(=O)[C@@H](Cc2c[nH]c3ccccc23)NC(=O)[C@@H](Cc2cccc3ccccc23)NC(=O)C2(N)CCNCC2)CCNCC1 [Example 46, H-Apc-D-1Nal-D-Trp-Phe-Apc-NH2] | 0.46
